According to US9458104B2 (dated 2016):

How the values were obtained:
[1] = target: RORγ (UniProt P51449); conditions: 293T cells, 16 h; for pIC50 (FF): firefly (FF) luciferase; for pIC50 (REN): renilla normalised (RENnorm) luciferase
[2] = target: RORγ ligand binding domain (LBD) (Homo sapiens, UniProt P51449); test: TR-FRET Activity Assay (ligand sensing assay, RORγ-LBD / coactivator peptide interaction)

| Compound | pIC50 (FF) [1] | pIC50 (REN) [1] | IC50 [2] [nM] |
| --- | --- | --- | --- |
| CC(C)(C)c1cc(-n2nc(C(=O)NCCO)c(Cl)c2CC2CCCCC2)cc(C(C)(C)C)c1 [103/4] | < 4.7 | < 4.7 | 1000 |
| Cc1c(C(=O)NCC(C)(C)O)cn(-c2cc(C(C)(C)C)cc(C(C)(C)C)c2)c1CC1CCCCC1 [Example 1, 5-(Cyclohexylmethyl)-1-(3,5-di-tert-butylphenyl)-N-(2-hydroxy-2-methylpropyl)-4-methyl-1H-pyrrole-3-carboxamide] | 7.3 | 7.3 | 126 |
| Cc1c(C(=O)NC2CCOCC2)cn(-c2cc(C(C)(C)C)c3c(c2)C2(CCO3)CC2)c1CC1CCCCC1 [1/3] | 6.9 | 6.9 | 794 |
| Cc1c(C(=O)NC2CCOCC2)cn(-c2cc(C(C)(C)C)cc(C3(C)CC3)c2)c1CC1CCCCC1 [1/2] | 7.5 | 7.4 | 316 |
| Cc1c(C(N)=O)nn(-c2cc(C(C)(C)C)cc(C(C)(C)C)c2)c1CC1CCCCC1 [Example 311, 5-(Cyclohexylmethyl)-1-(3,5-di-tert-butylphenyl)-4-methyl-1H-pyrazole-3-carboxamide] | 6.0 | 5.9 | 316 |
| Cc1cc(-n2nc(C(N)=O)c(Cl)c2CC2CCCCC2)cc(C(C)(C)C)c1 [Example 314, 1-(3-(tert-butyl)-5-methylphenyl)-4-chloro-5-(cyclohexylmethyl)-1H-pyrazole-3-carboxamide] | 5.6 | 5.5 | 3980 |
| CC(C)(C)c1cc(-n2nc(C(=O)NC3COC3)c(Cl)c2CC2CCCCC2)cc(C(C)(C)C)c1 [Example 103/1] | 6.6 | 6.7 | 200 |
| CC(C)(C)c1cc(-c2nc(C(=O)N3CCOCC3)nn2CC2CCCCC2)cc(C(C)(C)C)c1O [308/5] | 5.5 | < 4.7 | 3980 |
| CC(C)(O)CNC(=O)c1nn(-c2cc(C(C)(C)C)nc(C(C)(C)C)c2)c(CC2CCCCC2)c1Cl [104/2] | 6.5 | 6.5 | 158 |
| CC1(CNC(=O)c2nn(-c3cc(C(C)(C)C)nc(C(C)(C)C)c3)c(CC3CCCCC3)c2F)COC1 [Example 106, 5-(Cyclohexylmethyl)-1-(2,6-di-tert-butylpyridin-4-yl)-4-fluoro-N-((3-methyloxetan-3-yl)methyl)-1H-pyrazole-3-carboxamide] | 6.7 | 6.6 | 126 |
| CC(C)(C)c1cc(-n2nc(C(=O)NCCN3CCOCC3)c(Cl)c2CC2CCCCC2)cc(C(C)(C)C)n1 [104/3] | 6.7 | 6.5 | 158 |
| Cc1c(C(=O)NC2CCOCC2)cn(-c2cc(C(C)(C)C)cc(C(F)(F)F)c2)c1CC1CCCCC1 [1/6] | 7.2 | 7.2 | 251 |
| CC(C)(C)c1cc(-n2nc(C(=O)NC3COC3)c(Cl)c2CC2CCCCC2)cc(C(C)(C)C)n1 [Example 104/1] | 6.4 | 6.3 | 158 |
| CC1(CNC(=O)c2nn(-c3cc(C(C)(C)C)nc(C(C)(C)C)c3)c(CC3CCCCC3)c2C(F)(F)F)COC1 [Example 107, 5-(Cyclohexylmethyl)-1-(2,6-di-tert-butylpyridin-4-yl)-N-((3-methyloxetan-3-yl)methyl)-4-(trifluoromethyl)-1H-pyrazole-3-carboxamide] | < 4.7 | < 4.7 | 1260 |
| COCCNC(=O)c1nn(-c2cc(C(C)(C)C)cc(C(C)(C)C)c2)c(CC2CCCCC2)c1Cl [103/3] | < 4.7 | < 4.7 | 398 |
